According to paper PMC10703812, “Understanding the molecular mechanisms of odorant binding and activation of the human OR52 family” (Nature Communications, 2023):
Where “and” joins values, the source holds several entries; their conditions need not be identical. Identical values can stand only once.

Test system: OR52cs R265A
Experiment: CRE luciferase assay in Hana3A cells, mutant
Format: cell-based, human
Conditions: 100 µM carboxylic acid; Fig.S7a, single experiments
Protocol: For cAMP assay, CRE luciferase assay, and surface ELISA, the full-length OR52cs construct was cloned into the pcDNA3.1 vector. The Lucy signal sequence and FLAG peptide sequence were added to the N-terminus. Mutant constructs were generated by site-directed mutagenesis. For BRET assay, eYFP was added at the C-terminus of OR52cs with a GGGGS linker. Rluc was added to Gα for resonance partner (after L99 for Gαs, and I100 for Gαolf, respectively, with GGGGS linker back and forth).
48 h after infection, cells were treated with odorants and incubated at 37 °C for 4 h. […] All values were divided by the Renilla luciferase activity to normalize the effect of cell confluence. All data were analyzed using GraphPad Prism 9.4.1.

Question: `CCCCCCCCCCCC(=O)O` [Dodecanoate, dodecanoate] was tested. Which “relative fold (luciferase activity over DMSO)” value did it give?
Answer: 1.881 fold and 1.569 fold and 1.6524 fold and 1.516 fold
